This note sets out measurements from ChEMBL document CHEMBL4043226, “Design, synthesis and biological evaluation of benzamide and phenyltetrazole derivatives with amide and urea linkers as BCRP inhibitors” (Bioorg Med Chem Lett, 2017).

Assay [1] can be described thus: Inhibition of ABCG2 in human H460/MX20 cells assessed as potentiation of mitoxantrone induced antiproliferative activity by measuring mitoxantrone IC50 at 10 uM preincubated for 2 hrs followed by mitoxantrone addition measured after 72 hrs by MTT assay (reference value: 6.161 +/- 0.172 microM).
A short description of assay [2]: Inhibition of ABCG2 in human H460/MX20 cells assessed as potentiation of mitoxantrone induced antiproliferative activity by measuring mitoxantrone IC50 at 1 uM preincubated for 2 hrs followed by mitoxantrone addition measured after 72 hrs by MTT assay (reference value: 6.161 +/- 0.172 microM).

In the case of `COc1cccc(-n2nnc(-c3ccccc3NC(=O)Nc3cccc([N+](=O)[O-])c3)n2)c1`, the values for the IC50 in assay [1] and in assay [2] were 750 nM and 967 nM, respectively.
